Screening results (PubChem)
Most compounds without a hit are left out; they make up all but 16% or so of the library.
uPA generation: blocks generation of uPA at the cell surface; cell surface uPA generation assay, qHTS; Potency, µM (top dose mostly 38.3 µM), for inactives: top-dose activity change, negative = inhibition, most hits filed as inhibitors; 330,000 compounds, 0.31% hits; active means well fitted inhibition curve with a large enough effect; inconclusive means small, poorly fitted or top-dose-only effect; inactive means no such curve, though single readings can be large or run the other way; tested in mouse RAW 264.7 cells; further: potency means the concentration at half of the fitted maximal effect; on the % scale 0 is the no-effect control and ±100 the full control effect; nearly all actives have a fitted effect of over 55% in size
TDP1 inh: blocks human tyrosyl-DNA phosphodiesterase 1. 350,000 compounds, 0.28% hits. Q9NUW8. AID 485290. Potency, µM (top dose mostly 130 µM), for inactives: at the top dose activity change, negative = inhibition, usual class: inhibitors. recombinant TDP1, AlphaScreen DNA substrate cleavage; further: potency means the concentration at half of the fitted maximal effect; on the % scale 0 is the no-effect control and ±100 the full control effect; nearly all actives have a fitted effect of over 40% in size
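Signal: AlphaScreen proximity between streptavidin donor and anti-FITC acceptor beads on intact substrate. Reaction: Tdp1 1 nM, substrate 15 nM final, 5 min RT after 15 min compound preincubation.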
miR-21 reporter: miR-21 reporter, rising signal | HeLa miR-21 FLuc reporter, luciferase, 48 h | Potency, µM (top dose mostly 38.3 µM), inactives show at the top dose reporter change, positive = more light | 340,000 tested, under 10 active | AID 2288; active = well fitted rising curve with a large enough effect; inconclusive = small, poorly fitted or top-dose-only effect; inactive = no such curve, though single readings can be large or run the other way;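 further: % of control where 0% means no effect; miR-21 action dims this reporter so a rising signal means less miR-21 action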
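Compounds were titrated across several concentrations (up to approximately 40 uM) and incubated 48 hours with HeLa miR-21-FLuc reporter cells (miR-21 target sequence downstream of FLuc, endogenous miR-21). Readout was firefly luciferase luminescence after lytic detection reagent.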
TDP1 cell CPT: DT40-hTDP1 cell growth loss with CPT | chicken DT40 Tdp1-/-;hTDP1 cells + 20 nM CPT, ATP luminescence, 48 h | Potency, µM (highest dose often 46.2 µM), for the others: top-dose activity change, negative = growth inhibition, actives largely listed as inhibitors | 420,000 compounds, 12% hits; further: potency means the concentration at half of the fitted maximal effect; on the % scale 0 is the no-effect control and ±100 the full control effect; nearly all actives have a fitted effect of over 55% in size
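Chicken DT40 Tdp1-/- cells complemented with human TDP1, 400 cells/well, exposed to compounds plus 20 nM camptothecin for at least 48 h at 37 C; viability read as ATP content by CellTiter-Glo luminescence.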
TDP1 cell noCPT: qHTS for Inhibitors of human tyrosyl-DNA phosphodiesterase 1 (TDP1): qHTS in cells in absence of CPT | 420,000 compounds, 15% hits | AID 686978, 2013 | Potency, µM (titrated, usually from 46.2 µM), for the others: at the highest dose activity change, negative = growth inhibition, most hits filed as inhibitors | DT40 Tdp1-/- hTDP1 cells, no CPT, ATP luminescence, 48 h; further: potency means the concentration at half of the fitted maximal effect; on the % scale 0 is the no-effect control and ±100 the full control effect; nearly all actives have a fitted effect of over 55% in size
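DT40 Tdp1-/-;hTDP1 cells, no CPT (DMSO vehicle only), 400 cells/well; compounds pin-transferred; ≥48 hr, 37 °C; CellTiter-Glo 30 min RT dark, luminescence read.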
An asterisk follows results filed as active; ? = inconclusive; . = no result; ! = repeats disagree; [ ] = dose if it differs, or a comment. Unless noted, the call rests on the fitted dose curve; in most records, active means well fitted curve in the direction sought with a large enough effect; inconclusive means small, poorly fitted or top-dose-only effect, or another doubt; inactive means no such curve, though single readings can be large; an effect the other way counts as inactive or inconclusive.

1	CCOc1ccc(C2c3c(-c4ccc(C)cc4)n[nH]c3C(=O)N2c2ccc(Cl)cc2)cc1 (centres undefined)
2	Cc1cc(C)n(-c2nc3c(c(=O)[nH]c(=O)n3C)n2CCc2ccccc2)n1
3	CCOC(=O)c1c(S(=O)(=O)N2CCC(C(=O)Nc3ccc(C)cn3)CC2)c(C)n(C)c1C
4	CSc1ncccc1C(=O)N1CCCC(N2CCN(c3ccccc3C)CC2)C1 (centres undefined)
5	Cc1ccccc1N1CCN(C2CCCN(C(=O)c3noc4c3CCCC4)C2)CC1 (centres undefined)
entry no.	1	2	3	4	5
TDP1 cell CPT	?	?	-4.2%	16.4µM*	9.2µM*
miR-21 reporter	-10.0%	18.2%	3.2%	.	17.6%
TDP1 inh	7.0%	4.8%	0.5%	.	9.2%
TDP1 cell noCPT	?	?	10.8%	9.2µM*	8.2µM*
uPA generation	.	-10.2%	.	.	1.9%

6	CCc1[nH]nc(C(=O)N2CCCC(N3CCN(c4ccccc4C)CC3)C2)c1C (centres undefined)
7	CC1=C(C(=O)N2CCCC(N3CCN(c4ccccc4C)CC3)C2)OCCO1 (centres undefined)
8	Cc1ccccc1N1CCN(C2CCCN(C(=O)c3ccccn3)C2)CC1 (centres undefined)
9	COCCCn1c(SCC(=O)N2CCCC2=O)nc2ccccc2c1=O
10	Cc1ccccc1N1CCN(C2CCCN(C(=O)c3cn4cccc(C)c4n3)C2)CC1 (centres undefined)
entry no.	6	7	8	9	10
TDP1 cell CPT	16.4µM*	?	-59.1%	-3.9%	23.1µM*
miR-21 reporter	11.3%	-7.7%	-0.6%	.	?
TDP1 inh	5.4%[56.1 µM]	7.2%	0.7%	.	.
TDP1 cell noCPT	?	?	25.9µM*	-33.3%	8.2µM*
uPA generation	10.1%	3.9%	?	.	-10.7%

11	Cc1cc(C(=O)N2CCCC(N3CCN(c4ccccc4C)CC3)C2)n(C)n1 (centres undefined)
12	Cc1cnc(C(=O)N2CCCC(N3CCN(c4ccccc4C)CC3)C2)cn1 (centres undefined)
13	CC(C)Oc1ccc(CNC(=O)C2=Cc3ccccc3OC2)cc1
14	O=C(NCc1ccc2c(c1)OCO2)C1CCCCC1
15	O=c1c(O)c(-c2cc(O)c(O)c(O)c2)oc2cc(O)cc(O)c12
entry no.	11	12	13	14	15
TDP1 cell CPT	?	18.4µM*	20.6µM*	2.0%	11.2µM*!
miR-21 reporter	1.4%	-2.8%	-17.8%	-24.6%	.
TDP1 inh	3.8%	-0.3%	5.3%	6.7%	.
TDP1 cell noCPT	?	?	?	7.5%	18.4µM*
uPA generation	-1.0%	0.5%	.	3.2%	-5.5%

16	O=c1c(O)c(-c2ccccc2)oc2cc(O)cc(O)c12
17	CSc1cccc(NC(=O)c2ccc(NC3=NC4CS(=O)(=O)CC4S3)cc2)c1 (centres undefined)
18	O=C(Nc1ccc(NC(=O)c2ccccc2)c2ccccc12)c1ccccc1
19	COc1ccc(CN(Cc2ccco2)C(=O)COc2ccccc2OC)cc1
20	COc1ccc(CN(Cc2ccco2)C(=O)COc2ccccc2Cl)cc1
entry no.	16	17	18	19	20
TDP1 cell CPT	?	-13.9%	-10.6%	?	?
miR-21 reporter	.	-7.4%	.	-2.6%	2.7%
TDP1 inh	1.7%	.	.	0.0%	0.0%
TDP1 cell noCPT	29.9µM*	-18.8%	-6.7%	18.4µM*	23.1µM*
uPA generation	4.4%	0.4%	.	.	.

One compound at a time (already shown). Order of values: TDP1 cell CPT, miR-21 reporter, TDP1 inh, TDP1 cell noCPT, uPA generation
`CSc1cccc(NC(=O)c2ccc(NC3=NC4CS(=O)(=O)CC4S3)cc2)c1` (centres undefined) reads -13.9%, -7.4%, ., -18.8%, 0.4%
`O=C(Nc1ccc(NC(=O)c2ccccc2)c2ccccc12)c1ccccc1` reads -10.6%, ., ., -6.7%, .
`COc1ccc(CN(Cc2ccco2)C(=O)COc2ccccc2Cl)cc1` reads ?, 2.7%, 0.0%, 23.1µM*, .

(listing goes on)
21	O=C(COc1ccccc1Cl)N(Cc1ccco1)C1CCS(=O)(=O)C1 (centres undefined)
22	Cc1ccc(CN(Cc2ccco2)C(=O)COc2ccc(C(C)C)cc2)cc1
23	Cc1ccc(NC(=O)Cn2c(=O)c3cccn3c3ccccc32)c(Cl)c1
24	O=C(CCCn1c(=O)c2cccn2c2ccccc21)Nc1cccc(Cl)c1
25	Cc1cc(C)cc(NC(=O)CCCn2c(=O)c3cccn3c3ccccc32)c1
26	Cc1ccc(NC(=O)CCCn2c(=O)c3cccn3c3ccccc32)c(Cl)c1
27	Cc1ccc(NC(=O)CCCn2c(=O)c3cccn3c3ccccc32)c(C)c1
entry no.	21	22	23	24	25	26	27
TDP1 cell CPT	-2.5%	?	?	?	-11.1%	14.6µM*	14.6µM*
miR-21 reporter	-5.7%	9.0%	-8.3%	-75.9%	21.6%	4.7%	-3.9%
TDP1 inh	2.9%	3.7%	2.1%	5.2%	6.5%	3.9%	3.9%
TDP1 cell noCPT	-0.9%	?	-10.9%	18.4µM*	-13.3%	11.6µM*	14.6µM*
uPA generation	4.0%	.	8.0%	.	.	.	.
